Literature values, collected in patent US20050004171A1, “Novel substituted benzimidazole dosage forms and method of using same” (priority 1996, published 2005).

Conditions: solubility is altered by temperature; cited from earlier work

For Calcium glycerophosphate, the Solubility is listed as 6 g/100 mL.
